Earlier results, collected in US8466203B2, “Method of stabilizing human eye tissue by reaction with nitrite and related agents such as nitro compounds” (priority 2006, dated 2013).

Test system: corneal endothelial cell (primary)
Details: 12 hrs exposure, in serum free medium, bovine primary, trypan blue, Naor 2001; cited from earlier work

## Providone iodine
  Toxic concentration: (0.1%) in
